Target: CREB-binding protein (Homo sapiens) (UniProt Q92793)
Experiment: Inhibition of CBP (unknown origin) at 10 uM by CBR HAT assay relative to control

Sequences of proteins named here, by UniProt entry; tags and fusion partners are left off.
UniProt Q92793, whole entry, looked up: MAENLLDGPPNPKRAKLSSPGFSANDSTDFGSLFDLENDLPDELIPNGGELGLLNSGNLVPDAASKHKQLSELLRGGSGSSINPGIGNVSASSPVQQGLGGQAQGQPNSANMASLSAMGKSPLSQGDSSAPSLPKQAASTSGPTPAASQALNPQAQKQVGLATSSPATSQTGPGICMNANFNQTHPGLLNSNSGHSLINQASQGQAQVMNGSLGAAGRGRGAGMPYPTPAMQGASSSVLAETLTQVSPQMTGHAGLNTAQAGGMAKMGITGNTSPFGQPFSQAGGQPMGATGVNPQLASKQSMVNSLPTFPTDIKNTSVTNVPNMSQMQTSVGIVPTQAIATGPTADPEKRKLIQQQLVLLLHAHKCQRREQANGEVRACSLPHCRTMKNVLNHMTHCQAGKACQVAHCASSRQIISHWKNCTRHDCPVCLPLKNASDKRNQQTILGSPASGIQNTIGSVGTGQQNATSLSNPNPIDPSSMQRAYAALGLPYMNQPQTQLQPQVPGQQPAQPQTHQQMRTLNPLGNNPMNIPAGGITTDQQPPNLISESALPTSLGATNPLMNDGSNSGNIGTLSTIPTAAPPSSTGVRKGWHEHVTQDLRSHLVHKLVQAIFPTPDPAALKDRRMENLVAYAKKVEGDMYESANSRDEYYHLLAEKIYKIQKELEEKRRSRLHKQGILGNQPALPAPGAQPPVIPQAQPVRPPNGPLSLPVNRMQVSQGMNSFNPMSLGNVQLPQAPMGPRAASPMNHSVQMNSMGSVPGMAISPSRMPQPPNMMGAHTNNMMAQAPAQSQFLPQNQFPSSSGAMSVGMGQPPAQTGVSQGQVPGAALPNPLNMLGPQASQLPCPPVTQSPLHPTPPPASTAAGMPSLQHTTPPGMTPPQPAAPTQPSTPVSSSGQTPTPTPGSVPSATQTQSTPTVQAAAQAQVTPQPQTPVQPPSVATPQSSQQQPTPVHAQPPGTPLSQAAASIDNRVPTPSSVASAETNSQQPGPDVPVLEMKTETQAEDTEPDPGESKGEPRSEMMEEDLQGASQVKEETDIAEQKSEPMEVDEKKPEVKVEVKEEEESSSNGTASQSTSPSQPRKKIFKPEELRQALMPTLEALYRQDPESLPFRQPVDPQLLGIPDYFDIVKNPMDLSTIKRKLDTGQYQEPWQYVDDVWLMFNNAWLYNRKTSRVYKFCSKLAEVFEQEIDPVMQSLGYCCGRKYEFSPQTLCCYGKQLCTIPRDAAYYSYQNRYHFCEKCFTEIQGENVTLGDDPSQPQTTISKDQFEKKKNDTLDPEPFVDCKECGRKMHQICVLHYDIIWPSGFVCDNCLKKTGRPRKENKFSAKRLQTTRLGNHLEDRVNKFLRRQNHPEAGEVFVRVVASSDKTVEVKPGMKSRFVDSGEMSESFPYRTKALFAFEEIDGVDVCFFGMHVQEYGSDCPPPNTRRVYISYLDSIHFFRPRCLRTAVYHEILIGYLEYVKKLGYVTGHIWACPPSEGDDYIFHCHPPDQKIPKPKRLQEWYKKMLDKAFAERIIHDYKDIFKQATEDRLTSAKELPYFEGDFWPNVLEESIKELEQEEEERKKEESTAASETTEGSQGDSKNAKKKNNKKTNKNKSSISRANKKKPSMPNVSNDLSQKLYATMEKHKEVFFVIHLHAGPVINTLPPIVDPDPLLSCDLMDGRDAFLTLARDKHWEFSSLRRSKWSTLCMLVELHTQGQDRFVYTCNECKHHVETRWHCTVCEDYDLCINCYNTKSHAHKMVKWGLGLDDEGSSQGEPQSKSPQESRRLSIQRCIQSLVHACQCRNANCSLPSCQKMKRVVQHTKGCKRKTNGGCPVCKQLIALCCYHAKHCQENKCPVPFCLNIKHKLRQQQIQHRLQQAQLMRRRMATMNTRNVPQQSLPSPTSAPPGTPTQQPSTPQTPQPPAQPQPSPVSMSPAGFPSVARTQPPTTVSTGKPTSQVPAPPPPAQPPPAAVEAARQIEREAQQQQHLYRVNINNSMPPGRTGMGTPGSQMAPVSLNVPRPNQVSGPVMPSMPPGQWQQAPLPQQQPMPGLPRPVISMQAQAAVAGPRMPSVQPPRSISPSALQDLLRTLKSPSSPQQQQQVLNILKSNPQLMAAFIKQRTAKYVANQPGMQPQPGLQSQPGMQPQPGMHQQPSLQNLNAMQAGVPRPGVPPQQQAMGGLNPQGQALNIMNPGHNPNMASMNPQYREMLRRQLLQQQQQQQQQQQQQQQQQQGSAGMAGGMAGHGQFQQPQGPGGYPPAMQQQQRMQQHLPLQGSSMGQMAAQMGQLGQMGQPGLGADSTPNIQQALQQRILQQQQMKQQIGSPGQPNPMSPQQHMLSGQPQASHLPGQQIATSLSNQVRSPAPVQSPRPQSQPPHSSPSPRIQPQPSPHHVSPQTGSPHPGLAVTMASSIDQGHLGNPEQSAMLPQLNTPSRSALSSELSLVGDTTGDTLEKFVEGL

Row | inhibition [%] | Compound
1 | 25 | COC(=O)c1ccc(CCCCn2cc(Cn3cnc(N)nc3=O)nn2)cc1
2 | 14 | O=C(O)c1ccc(CCCCn2cc(-c3ccc(Cn4ccc(=O)[nH]c4=O)cc3)nn2)cc1
3 | 81 | Nc1nc(=O)n(Cc2cn(CCCCc3ccc(C(=O)O)cc3)nn2)cc1F
4 | 32 | Nc1ncnc2c1ncn2Cc1ccc(-c2cn(CCCCc3ccc(C(=O)O)cc3)nn2)cc1
5 | 8 | CCOC(=O)CCCCCCn1cc(-c2ccc(Cn3cc(F)c(N)nc3=O)cc2)nn1
6 | 21 | CCOC(=O)CCCn1cc(Cn2cnc(N)nc2=O)nn1
7 | 28 | Nc1ccn(Cc2ccc(-c3cn(CCCC(=O)O)nn3)cc2)c(=O)n1
8 | 30 | CCOC(=O)CCCCCn1cc(-c2ccc(Cn3ccc(N)nc3=O)cc2)nn1
9 | 38 | Nc1ncn(Cc2cn(CCCCc3ccc(C(=O)O)cc3)nn2)c(=O)n1
10 | -3 | CCOC(=O)CCCCCn1cc(Cn2cc(C)c(N)nc2=O)nn1
11 | 62 | COC(=O)c1ccc(CCCCn2cc(-c3ccc(Cn4ccc(N)nc4=O)cc3)nn2)cc1
12 | 5 | CCOC(=O)CCCCCCn1cc(-c2ccc(Cn3cnc4c(N)ncnc43)cc2)nn1
13 | 13 | Nc1ccn(Cc2cn(CCCCc3ccc(C(=O)O)cc3)nn2)c(=O)n1
14 | 7 | CCOC(=O)CCCCCn1cc(Cn2cc(F)c(N)nc2=O)nn1
15 | 31 | Nc1ccn(Cc2ccc(-c3cn(CCCCC(=O)O)nn3)cc2)c(=O)n1
16 | 3 | COC(=O)c1ccc(CCCCn2cc(Cn3cc(F)c(N)nc3=O)nn2)cc1
17 | 15 | Cc1cn(Cc2ccc(-c3cn(CCCCc4ccc(C(=O)O)cc4)nn3)cc2)c(=O)nc1N
18 | 56 | Nc1nc(=O)n(Cc2ccc(-c3cn(CCCCc4ccc(C(=O)O)cc4)nn3)cc2)cc1F
19 | 36 | COC(=O)c1ccc(CCCCn2cc(-c3ccc(Cn4cc(C)c(N)nc4=O)cc3)nn2)cc1
20 | 5 | CCOC(=O)CCCCCCn1cc(-c2ccc(Cn3cc(C)c(N)nc3=O)cc2)nn1
21 | -4 | CCOC(=O)CCCCCn1cc(Cn2ccc(=O)[nH]c2=O)nn1
22 | 15 | COC(=O)c1ccc(CCCCn2cc(Cn3cnc4c(N)ncnc43)nn2)cc1
23 | 20 | CCOC(=O)CCCCCCn1cc(-c2ccc(Cn3cnc(N)nc3=O)cc2)nn1
24 | 0 | CCOC(=O)CCCCCn1cc(Cn2ccc(N)nc2=O)nn1

Row | inhibition [%] | Compound
25 | 30 | CCOC(=O)CCCCCn1cc(-c2ccc(Cn3cnc(N)nc3=O)cc2)nn1
26 | 34 | Nc1ccn(Cc2ccc(-c3cn(CCCCc4ccc(C(=O)O)cc4)nn3)cc2)c(=O)n1
27 | 2 | O=C(O)c1ccc(CCCCn2cc(Cn3ccc(=O)[nH]c3=O)nn2)cc1
28 | 20 | CCOC(=O)CCCCCCn1cc(-c2ccc(Cn3ccc(N)nc3=O)cc2)nn1
29 | 28 | CCOC(=O)CCCCn1cc(-c2ccc(Cn3ccc(N)nc3=O)cc2)nn1
30 | 11 | COC(=O)c1ccc(CCCCn2cc(Cn3ccc(N)nc3=O)nn2)cc1
31 | 36 | COC(=O)c1ccc(CCCCn2cc(-c3ccc(Cn4ccc(=O)[nH]c4=O)cc3)nn2)cc1
32 | 4 | CCOC(=O)CCCCCn1cc(Cn2cnc3c(N)ncnc32)nn1
33 | 13 | Nc1ccn(Cc2ccc(-c3cn(CCCCCC(=O)O)nn3)cc2)c(=O)n1
34 | 21 | CCOC(=O)CCCCCCn1cc(Cn2cnc(N)nc2=O)nn1
35 | 20 | CCOC(=O)CCCCn1cc(-c2ccc(Cn3cnc(N)nc3=O)cc2)nn1
36 | 59 | COC(=O)c1ccc(CCCCn2cc(-c3ccc(Cn4cnc5c(N)ncnc54)cc3)nn2)cc1
37 | 10 | CCOC(=O)CCCn1cc(-c2ccc(Cn3cnc(N)nc3=O)cc2)nn1
38 | 11 | Cc1cn(Cc2cn(CCCCc3ccc(C(=O)O)cc3)nn2)c(=O)nc1N
39 | 11 | COC(=O)c1ccc(CCCCn2cc(Cn3ccc(=O)[nH]c3=O)nn2)cc1
40 | 1 | CCOC(=O)CCCCCn1cc(Cn2cnc(N)nc2=O)nn1
41 | 16 | Nc1ncnc2c1ncn2Cc1cn(CCCCc2ccc(C(=O)O)cc2)nn1
42 | 12 | CCOC(=O)CCCCn1cc(Cn2cnc(N)nc2=O)nn1
43 | 25 | Nc1ccn(Cc2ccc(-c3cn(CCCCCCC(=O)O)nn3)cc2)c(=O)n1
44 | 4 | COC(=O)c1ccc(CCCCn2cc(Cn3cc(C)c(N)nc3=O)nn2)cc1
45 | 36 | COC(=O)c1ccc(CCCCn2cc(-c3ccc(Cn4cc(F)c(N)nc4=O)cc3)nn2)cc1
46 | -1 | CCOC(=O)CCCCCCn1cc(-c2ccc(Cn3ccc(=O)[nH]c3=O)cc2)nn1
47 | 33 | CCOC(=O)CCCn1cc(-c2ccc(Cn3ccc(N)nc3=O)cc2)nn1
48 | 28 | COC(=O)c1ccc(CCCCn2cc(-c3ccc(Cn4cnc(N)nc4=O)cc3)nn2)cc1
